# Laboratory results published in patent publication US20180321224A1, “COMPOSITIONS AND METHODS FOR INCREASING HEPATOCYTE FUNCTIONAL LIFETIME IN VITRO” (Colorado State University Research Foundation, priority 2015, published 2018).
# Tested on: primary human hepatocytes in micropatterned co-cultures (MPCCs)
# Assay: Hepatotoxicity screening in MPCCs pre-cultured in physiologic medium (urea synthesis)
# Details: after 2 treatments over 5 days at 25*Cmax and 100*Cmax, serum free medium; MPCCs pre-cultured in physiologic medium 10 days
smiles,measurement,value
CN(CCOc1ccc(CC2SC(=O)NC2=O)cc1)c1ccccn1 (stereo not shown) [rosiglitazone],Toxicity categorization by urea synthesis in MPCC supernatants (toxic if below 50% of vehicle control),no significant loss in urea synthesis
